Results: patent US5792796A, “Methods for treating anxiety and panic” (Warner-Lambert Company, priority 1995, dated 1998)
Read-outs that look alike come from different tables or passages of the source.

Columns and labels:
male TO mice = settings: 40 minutes before test
Description: (§1) Male Hooded Lister rats (200-250 g) were obtained from Interfauna (Huntingdon, UK) and male TO mice (20-25 g) were obtained from Bantin and Kingman (Hull, UK). Both rodent species were housed in groups of six. Ten Common Marmosets (Callithrix Jacchus) weighing between 280 and 360 g, bred at Manchester University Medical School (Manchester, UK) were housed in pairs. All animals were housed under a 12-hour light/dark cycle (lights on at 07.00 hour) and with food and water ad libitum.
The small compartment was painted black and the large compartment white.

[1] = test system: Common Marmosets (Callithrix Jacchus); settings: 10-300 mg/kg SC, 40 minutes before test
Description: as §1

male Hooded Lister rats = test system: male Hooded Lister rats
Description: as §1

rats = assay: Rat conflict test
Description: as §1
Rats were trained to press levers for food reward in operant chambers. The schedule consisted of alternations of four 4-minute unpunished periods on variable interval of 30 seconds signalled by chamber lights on and three 3-minute punished periods on fixed ratio 5 (by footshock concomitant to food delivery) signalled by chamber lights off. The degree of footshock was adjusted for each rat to obtain approximately 80% to 90% suppression of responding in comparison with unpunished responding. Rats received saline vehicle on training days.
The results are expressed as mean percent increase or decrease of lever pressing (vertical bars represent ±SEM) of at least 5 animals per group on test day compared with mean performances obtained the 2 previous days following vehicle administration.
*p <0.05, **p <0.01 (paired Student t-test).

GABAA receptors = settings: cited from earlier work
GABAB receptors = settings: cited from earlier work
[2] = 3-100 mg/kg SC, 40 minutes before test

Structure (SMILES): NCC1(CC(=O)O)CCCCC1 [gabapentin, 1-(aminomethyl)cyclohexaneacetic acid]
- time spent by mice in the illuminated side of the box (male TO mice; 10 mg/kg IP): increased
- time spent by mice in the illuminated side of the box (male TO mice; 30 mg/kg IP): increased
- time spent by mice in the illuminated side of the box (male TO mice; 100 mg/kg IP (highest dose)): the effect disappeared
- number of postures emitted by marmosets in response to a human threat [1]: decreased
- total entries (male Hooded Lister rats; 30 mg/kg SC): increase
- percent entries (%EEOA) made onto the end half sections of the open arms (male Hooded Lister rats; [2]): increased
- percent time spent (%TEOA) on the end half sections of the open arms (male Hooded Lister rats; [2]): increased
- increase in lever pressing in the punished period (rats; 3 mg/kg (minimum effective dose), 40 minutes before test): 65%
- maximal effect, increase in lever pressing in the punished period (rats; 30 mg/kg, 40 minutes before test): 179%
- minimal effective dose (rats; Rattus norvegicus, 40 min, read-out: minimum effective dose (MED) for increased lever pressing in the punished period): 3 mg/kg
- anticonvulsant and anxiolytic activity in the presence of D-serine: can be reversed by D-serine
- interaction with GABAA receptors (GABAA receptors): does not interact
- interaction with GABAB receptors (GABAB receptors): does not interact
